Measurements from patent publication US12409179B2, “Pharmaceutical combination of pimozide and methotrexate and use thereof” (GENEROS BIOPHARMA LTD., priority 2019, dated 2025).

Columns and labels:
[1] = system: Lewis rat adjuvant-induced arthritis model; assay: Embodiment 1: oral Nib1 and injected methotrexate in Lewis rat adjuvant-induced arthritis model (joint score, paw volume, AUC); format: in vivo
[2] = system: adjuvant-induced arthritis in rats; assay: Embodiment 3: oral Nib1 and methotrexate in adjuvant-induced arthritis in rats (joint score, paw volume, AUC); parameters: species or system Lewis rat; conditions: rat, in vivo

SMILES: CN(Cc1cnc2nc(N)nc(N)c2n1)c1ccc(C(=O)N[C@@H](CCC(=O)O)C(=O)O)cc1 [MTX, Methotrexate]
- paw volume AUC relative to vehicle group, as fraction ([1]; Embodiment 1, methotrexate 0.5 mg/kg intraperitoneal, Nib1 10 mg/kg oral): 0.607
- the therapeutic effects compared with vehicle group (paw volume x time AUC %) ([1]; rat, in vivo): 60.7%
- effect on ΔAUC of paw volume relative to the vehicle group / synergistic effect [2]: not significant
